Laboratory results published in US20020173538A1, “Method for sensitizing cancer cells to cancer therapies with a mevalonate-reducing compound” (priority 2000, published 2002).

Tested on: Hep 3B cells
Assay: MTT cell viability assay, Hep 3B cells (serum-free DMEM)
Conditions: Homo sapiens, Hep3B, 72 h, read-out: Cell viability, lovastatin 20 μM, 72 hr

**Q.** How did the viability at 20 µM turn out when `CC[C@H](C)C(=O)O[C@H]1C[C@@H](C)C=C2C=C[C@H](C)[C@H](CC[C@@H]3C[C@@H](O)CC(=O)O3)[C@H]21` [Lovastatin, lovastatin] was run?
**A.** Its viability at 20 µM is 31.5 ± 5.3%.
